From BindingDB's records for doi:10.1021/bi1013479 (University of California Irvine, 2010)

Protein sequences, listed by entry. Tags and fused reporters are not part of them.
UniProt P29475, whole entry: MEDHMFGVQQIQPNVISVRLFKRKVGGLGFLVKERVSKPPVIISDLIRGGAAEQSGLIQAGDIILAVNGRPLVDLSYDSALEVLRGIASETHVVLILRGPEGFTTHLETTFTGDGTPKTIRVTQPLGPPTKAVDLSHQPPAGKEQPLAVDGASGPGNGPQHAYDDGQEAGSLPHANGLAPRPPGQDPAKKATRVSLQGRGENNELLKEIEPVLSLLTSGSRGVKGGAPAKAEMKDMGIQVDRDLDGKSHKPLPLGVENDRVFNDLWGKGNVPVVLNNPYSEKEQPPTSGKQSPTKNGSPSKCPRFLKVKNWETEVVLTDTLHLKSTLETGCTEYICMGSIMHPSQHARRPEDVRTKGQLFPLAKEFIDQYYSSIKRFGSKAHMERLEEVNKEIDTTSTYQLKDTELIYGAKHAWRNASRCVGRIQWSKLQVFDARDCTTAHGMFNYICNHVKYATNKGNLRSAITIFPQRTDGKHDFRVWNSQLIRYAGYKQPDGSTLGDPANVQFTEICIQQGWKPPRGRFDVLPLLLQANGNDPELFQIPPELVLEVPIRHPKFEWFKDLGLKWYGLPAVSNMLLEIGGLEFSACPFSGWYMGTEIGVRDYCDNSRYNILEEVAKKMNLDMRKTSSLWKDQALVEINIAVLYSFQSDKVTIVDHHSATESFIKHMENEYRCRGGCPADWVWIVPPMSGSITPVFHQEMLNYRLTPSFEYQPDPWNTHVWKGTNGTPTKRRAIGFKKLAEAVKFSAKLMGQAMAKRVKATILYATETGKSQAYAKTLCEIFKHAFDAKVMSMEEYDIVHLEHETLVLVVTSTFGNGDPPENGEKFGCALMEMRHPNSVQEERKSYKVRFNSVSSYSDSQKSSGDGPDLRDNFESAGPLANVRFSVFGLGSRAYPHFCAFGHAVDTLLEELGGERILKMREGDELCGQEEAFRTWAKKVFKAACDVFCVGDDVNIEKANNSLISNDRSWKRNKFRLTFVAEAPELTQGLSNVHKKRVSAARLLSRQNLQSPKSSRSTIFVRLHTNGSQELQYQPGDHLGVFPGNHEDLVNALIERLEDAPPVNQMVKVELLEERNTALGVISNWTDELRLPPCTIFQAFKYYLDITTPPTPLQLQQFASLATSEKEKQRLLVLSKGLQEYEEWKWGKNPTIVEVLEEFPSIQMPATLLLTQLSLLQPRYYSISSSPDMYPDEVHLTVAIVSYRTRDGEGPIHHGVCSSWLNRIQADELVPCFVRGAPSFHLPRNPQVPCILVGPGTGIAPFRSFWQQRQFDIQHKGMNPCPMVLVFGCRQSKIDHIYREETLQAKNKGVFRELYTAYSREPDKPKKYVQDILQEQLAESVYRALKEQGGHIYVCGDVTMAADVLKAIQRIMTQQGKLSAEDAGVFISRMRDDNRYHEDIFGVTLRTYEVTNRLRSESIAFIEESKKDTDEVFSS

Biological target: Nitric oxide synthase, brain (Homo sapiens, UniProt P29475)
Experiment: Inhibitory Assay
Source text: Inhibition assay using nitric oxide synthases.

Row | SMILES | Ki [nM]
1 | Cc1cc(N)nc(CCc2cccc(CCc3cc(C)cc(N)n3)c2)c1 [NOS Inhibitor, 3h] | 38
2 | Cc1cc(N)nc(CCc2cncc(CCc3cc(C)cc(N)n3)c2)c1 [NOS Inhibitor, 3j] | 25
